Amino acid sequences for entries named in this document (tags omitted). A change or cut given only in a name is not applied to a line headed by its entry.
UniProt P49841: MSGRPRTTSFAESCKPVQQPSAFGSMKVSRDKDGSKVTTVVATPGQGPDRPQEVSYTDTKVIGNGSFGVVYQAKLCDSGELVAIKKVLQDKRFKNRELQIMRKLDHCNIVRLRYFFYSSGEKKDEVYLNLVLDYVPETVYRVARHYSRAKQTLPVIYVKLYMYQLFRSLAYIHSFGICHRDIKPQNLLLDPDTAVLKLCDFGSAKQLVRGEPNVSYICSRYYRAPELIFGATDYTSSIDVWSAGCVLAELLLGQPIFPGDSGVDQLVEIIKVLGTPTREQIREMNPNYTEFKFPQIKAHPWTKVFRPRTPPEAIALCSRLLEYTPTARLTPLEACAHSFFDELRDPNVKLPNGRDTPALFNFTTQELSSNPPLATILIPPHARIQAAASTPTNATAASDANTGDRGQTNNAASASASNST

According to US8492378B2, “GSK-3β inhibitor” (Takeda Pharmaceutical Company Limited, priority 2006, dated 2013):

Target: GSK-3β (Homo sapiens, UniProt P49841)
Assay: Serine threonine kinase inhibitory activity ([γ-33P]ATP)
Format: biochemical
Conditions: [γ-33P]ATP kinase panel; read-out: IC50 values against GSK-3β
Procedure: Inhibitory action on various purified proteins of serine, threonine kinases (p38α, JNK1, IKKβ, ASK1, TAK1, MEKK1, PKCθ, GSK-3β, PLK1, TTK, Aurora A, MEK1, MEK5, B-RAF, ERK1) was examined. As a reaction mixture, 37.5 μL of 25 mM HEPES (pH 7.5), 10 mM magnesium acetate, 1 mM DTT, each concentration of purified protein and a synthesis substrate were used. The mixture was reacted in the presence or absence of a test compound (2.5 μL/the reaction mixture) dissolved in DMSO at each concentration at room temperature for 5 min. […] After quenching the reaction, the amount of phosphorylated peptide was measured by Top-Count (Packard).

**Q.** `COc1ccc(CSc2nnc(-c3ccc4c(c3)OCO4)o2)cc1F` [Reference Example 71, 2-(1,3-benzodioxol-5-yl)-5-[(3-fluoro-4-methoxybenzyl)thio]-1,3,4-oxadiazole, reference compound] was tested. Which IC50 did it give?
**A.** 0.065 µM
